Binding of CDR-mutated scFvs to a peptide of the spike HR2 region

Target peptide (SARS-CoV-2 spike, HR2 region): PDVDLGDISGINAS

Ab-14 is the parent antibody, in scFv form: VH, then three GGGGS repeats, then VL. The light chain is unchanged in all variants.
VH: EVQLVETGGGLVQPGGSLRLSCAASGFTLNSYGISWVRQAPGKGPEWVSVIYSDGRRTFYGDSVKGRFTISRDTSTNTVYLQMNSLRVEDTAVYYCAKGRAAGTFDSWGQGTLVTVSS
VL: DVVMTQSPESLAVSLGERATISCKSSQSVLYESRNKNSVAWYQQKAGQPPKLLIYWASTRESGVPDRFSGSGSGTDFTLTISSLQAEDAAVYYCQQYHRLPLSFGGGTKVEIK

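The starting antibody came from a phage panning campaign against this peptide. The variants were designed computationally from a first round of random CDR variants and then made and measured. Their group label is 14H_GP_HC (GP: Gaussian process model; HC: hill climbing; a sequence that several methods proposed may carry one label only). In AlphaSeq, yeast of one mating type display the scFv and yeast of the other type display the target. Mating (16 h, 30 °C) was followed by selection of diploids and sequencing of their barcodes. Each replicate has its own calibration line, from reference interactions of the BCL2 family. Each pool was mated in six replicate cultures.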

Each variant is given by its three heavy chain CDRs, as the data file delimits them; those of the parent are GFTLNSYGIS, VIYSDGRRTFYGDSVK, GRAAGTFDS.
The read-out is the apparent dissociation constant on a log10 scale (nM): the lower, the stronger.
An entry "ND" has no value in the source: the pair was not observed among the diploids in that replicate. This suggests poor binding but is not conclusive.
The range of this assay differs from that of the first round, and the authors advise against merging the two.

| CDR-H1 | CDR-H2 | CDR-H3 | replicates, log10 nM | signal with controls |
|---|---|---|---|---|
| GFTLKSYGIS | VIYSDGRRTFYDDSVK | GKAAGTFDS | ND / 1.96 / ND / ND / ND / ND | 0/18 |
| GFSLNEYGIS | VIYSDGRRTFYGDSVK | GMAAGTFDR | 0.06 / -0.22 / -0.26 / 0.09 / -0.30 / 0.29 | 0/18 |
| GFTLNSYGIS | VIYSDGRRTFYSDSVK | GTDAGTFDS | 1.83 / 3.24 / 1.02 / 2.18 / 2.81 / 1.02 | 0/18 |
| GFTLNEYGIS | VIYSDGRRTFYSDSVK | GREAGTFDV | 0.00 / -0.49 / -0.78 / -0.61 / -0.83 / -0.71 | 0/18 |
| GFWLNDYGIS | VIYADGRRTFYGDSVK | GNAAGTFDS | ND / 1.97 / 0.93 / 0.45 / 0.27 / 0.77 | 0/18 |
| GFTLNSYGIS | VIYSDGRRTAYGDSVK | GQLAGTFDS | 1.66 / 1.13 / 1.84 / 1.70 / 1.61 / 3.06 | 0/18 |
| GFTLNSYGIS | VIYSDGRRTFYTDSVK | GMQAGTFDS | 0.80 / 0.71 / 1.46 / 1.04 / 1.12 / 0.85 | 0/18 |
| GFLLNDYGIS | VIYSDGRRTFYIDTVK | GNAAGTFDS | ND / 1.82 / 0.85 / ND / 0.88 / 1.43 | 0/18 |
| GFTLKSYGIS | VIYSDGRRTFYDDSVK | GRLAGTFDS | ND / ND / ND / 1.62 / ND / 2.16 | 0/18 |
| GFFLNEYGIS | VIYSDGRRTFYGDSVK | GRAAVTFDI | ND / ND / ND / ND / ND / ND | 0/18 |
| GFTLESYGIS | VIYSDGRRTFYIDSVK | GQGAGTFDS | ND / ND / ND / ND / ND / ND | 0/18 |
| GNTLNDYGIS | VIYSDGRRTFYTDSVK | GRTAGTFDS | 1.04 / ND / ND / ND / 1.10 / 0.41 | 0/18 |
| GFVLNQYGIS | VIYSDGRRTFYSDSVK | GRQAGTFDS | 1.37 / 0.73 / 1.01 / 0.98 / 0.30 / 1.84 | 0/18 |
| KFNLNEYGIS | VIYSDGRRTFYTDSVK | GRCAGTFDS | 0.39 / ND / ND / ND / ND / ND | 0/18 |
| DFTLNEYGIS | VIYSDGRRTFYGDSVK | GRAAVTFDK | ND / ND / ND / ND / ND / ND | 0/18 |
| GFRLNSYGIS | VIYSDGRRTFYIDSVK | GQLAGTFDS | ND / ND / ND / ND / ND / ND | 0/18 |
| GFELNDYGIS | VIYSDGRRTFYIDSVK | GNAAGTFDS | 0.47 / 0.35 / 0.10 / 0.49 / 0.10 / 0.10 | 1/18 (2.43) |
| GFDLNEYGIS | VIYSDGRRTFYGDSVK | GRAADTFDQ | ND / ND / ND / ND / ND / ND | 1/18 (2.12) |
| GFDLNSYGIS | VIYSDGRRTFYGDSVK | GRAAGFFRS | ND / ND / ND / ND / ND / ND | 0/18 |
| GFTLNSYGIS | VIYSDGRRTFYSDSVK | GRAAVTFDD | ND / ND / ND / ND / ND / ND | 0/18 |
| GFTLDSYGIS | VIYSDGRRTFYGDSVK | GHAAGTFDR | 1.35 / 1.68 / 2.38 / 1.92 / 2.78 / 2.31 | 1/18 (1.47) |
| GFSLNWYGIS | VIYSDGRRTFYIDSVK | GEAAGTFDS | ND / ND / ND / ND / ND / 1.81 | 0/18 |
| GFTLESYGIS | VIYSDGRRTFYDDSVK | GQVAGTFDS | 0.07 / 0.37 / 0.38 / 0.15 / -0.08 / 0.44 | 0/18 |
| GFDLNSYGIS | VIYSDGRRTFYGDSVK | GRAAGVFDS | ND / 2.48 / ND / ND / ND / ND | 0/18 |
| GFTLNEYGIS | VIYSDGRRTFYGDSVK | GRAAGTFGL | 0.15 / 0.05 / -0.06 / 0.04 / -0.01 / 0.27 | 0/18 |
| GFTLNEYGIS | VIYSDGRRTFYGDSVK | GRNAGTFDG | 2.24 / 0.68 / 1.28 / 0.96 / 0.70 / 1.70 | 1/18 (4.50) |
| GFDLNEYGIS | VIYSDGRRTFYGDAVK | GKAAGTFDS | 0.15 / 0.09 / -0.08 / -0.04 / -0.18 / 0.01 | 0/18 |
| GFQLNDYGIS | VIYSDGRRTFYADSVK | GRAAGTFDE | 0.57 / 0.62 / 0.12 / 1.12 / 0.23 / -0.04 | 0/18 |
| GFTLNEYGIS | VIYSDGRRTFYGDSVK | GRQAGTFDF | 1.40 / 0.51 / 0.22 / 1.22 / -0.17 / 0.81 | 0/18 |
| GFDLNQYGIS | VIYSDGRRTFYSDSVK | GRQAGTFDS | -0.30 / -0.66 / -0.21 / -0.23 / -0.66 / -0.46 | 0/18 |
| GFWLNDYGIS | VIYSDGRRTFYKDSVK | GRAAGTFDS | 1.18 / 1.23 / 0.88 / 0.66 / 1.24 / 1.32 | 1/18 (1.59) |
| GFTLKSYGIS | VIYSDGRRTFYDDSVK | GKEAGTFDS | 0.51 / 0.66 / 0.82 / 0.43 / 0.89 / 0.49 | 0/18 |
| GFTLNEYGIS | VIYSDGRRTFYDDDVK | GRTAGTFDS | 0.14 / 0.20 / -0.15 / -0.35 / -0.05 / -0.04 | 1/18 (3.76) |
| GFSLNDYGIS | VIYSDGRRTFYGDSVK | GRNAGTFIS | ND / ND / ND / ND / ND / ND | 0/18 |
| GFTLNEYGIS | VIYSDGRRTFYEDSVK | GRHAGTFDS | 0.82 / 0.71 / 0.16 / 1.15 / 0.92 / 0.82 | 0/18 |
| GFSLNEYGIS | VIYSDGRRTFYGDSVK | GRAADTFDQ | ND / ND / ND / 3.39 / 3.99 / 2.79 | 0/18 |
| GFGLNEYGIS | VIYADGRRTFYGDSVK | GRAAGTFIS | 2.21 / ND / ND / ND / ND / ND | 0/18 |
| GFTLNEYGIS | VIYSDGRRTFYGDSVK | GRAAVTFVL | ND / ND / ND / ND / ND / ND | 0/18 |
| GFDLNSYGIS | VIYSDGRRTFYGDSVK | GRHAGTFES | 2.93 / 2.76 / ND / 2.23 / 2.61 / 1.78 | 3/18 (2.64) |
| GFTLDSYGIS | VIYADGRRTFYGDSVK | GRAAGTFYS | ND / ND / 0.54 / ND / ND / ND | 0/18 |
| GFYLNSYGIS | VIYSDGRRTFYDDSVK | GQIAGTFDS | ND / ND / ND / 2.17 / ND / ND | 0/18 |
| GFGLNEYGIS | VIYSDGRRTFYDDSVK | GRTAGTFDS | 0.08 / -0.06 / -0.23 / -0.16 / -0.26 / -0.23 | 0/18 |
| GFTLNSYGIS | VIYSDGRRTFYSDSVK | GNAAGIFDT | ND / ND / ND / ND / ND / ND | 0/18 |

A selection of 3 entries from above:

| CDR-H1 | CDR-H2 | CDR-H3 | replicates, log10 nM | signal with controls |
|---|---|---|---|---|
| GFTLKSYGIS | VIYSDGRRTFYDDSVK | GRLAGTFDS | ND / ND / ND / 1.62 / ND / 2.16 | 0/18 |
| GFGLNEYGIS | VIYADGRRTFYGDSVK | GRAAGTFIS | 2.21 / ND / ND / ND / ND / ND | 0/18 |
| GFVLNQYGIS | VIYSDGRRTFYSDSVK | GRQAGTFDS | 1.37 / 0.73 / 1.01 / 0.98 / 0.30 / 1.84 | 0/18 |

The authors averaged sequences with at least three values out of six and counted those with two or fewer as poor binders.
As a blank, each scFv also met three strains without target: over all heavy chain designs, 1% of these pairings were detected, typically at 2.08 and seldom below 0.84. The control count says in how many pairings with the empty strains this scFv gave a signal, with their mean in brackets.

Data: MIT Lincoln Laboratory AlphaSeq set, Li et al. 2023, doi:10.1038/s41467-023-39022-2, as distributed in FLAb.